# Experimental data as given in US20080312435A1, “Imine Compound” (TAISHO PHARMACEUTICAL CO., LTD., priority 2004, published 2008).
# Chains of the proteins cited; added tags and fusions are not shown.
# UniProt P34972, whole entry: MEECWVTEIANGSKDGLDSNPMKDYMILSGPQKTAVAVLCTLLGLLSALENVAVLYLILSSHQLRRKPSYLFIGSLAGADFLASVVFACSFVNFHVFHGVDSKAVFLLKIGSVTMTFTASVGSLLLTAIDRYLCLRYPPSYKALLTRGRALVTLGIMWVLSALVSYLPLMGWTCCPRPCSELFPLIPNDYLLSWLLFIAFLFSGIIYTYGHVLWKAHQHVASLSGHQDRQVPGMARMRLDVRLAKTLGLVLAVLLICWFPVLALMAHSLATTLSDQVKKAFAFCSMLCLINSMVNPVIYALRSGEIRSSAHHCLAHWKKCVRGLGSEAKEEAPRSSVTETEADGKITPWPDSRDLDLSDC
# Target: human CB2 receptor (Homo sapiens, UniProt P34972)
# Experiment: Human CB2 receptor binding inhibition test ([3H]CP-55,940, CHO membrane fractions)
# Settings: read-out: CB2 IC50 (Inhibition of binding to human CB2 receptor); [3H]CP-55,940, membrane fractions of CHO cells stably expressing human CB2 receptor, 25° C., 2 hours
row,Structure (SMILES),IC50
1,Cc1c(C(C)(C)C)sc(=NC(=O)c2cccc(Br)c2)n1CC1CC1,1 nM
2,CCn1c(C)c(C(C)(C)C)sc1=NC(=O)c1cc(F)ccc1OC,7.2 nM
3,Cc1cc(C)n(CC2CC2)c(=NC(=O)c2cccc(C(F)(F)F)c2F)c1,16.5 nM
